The record followed here is US20250353857A1, “COMPOUND ACTIVE AS INHIBITOR OF COLONY STIMULATION FACTOR-1 RECEPTOR (CSF-1 R)” (priority 2022, published 2025).

The test system of this assay is P-MAPK (ERK1/2) in CSF-1 stimulated bone-marrow derived macrophages. Kind of assay: Effect of CSF1R inhibitors on MAPK signaling in mouse bone-marrow derived macrophages. Format: cell-based. To be noted: fold change relative to PLX3397 (IC50 inhibitor/IC50 PLX3397), P-MAPK/total MAPK, 10 ng/mL CSF-1.

With `CN(Cc1ccccc1)c1ncnc2[nH]c(-c3ccc(CO)cc3)cc12` [KUL01-123, (4-(4-(Benzyl(methyl)amino)-7H-pyrrolo[2,3-d]pyrimidin-6-yl)phenyl)methanol], the “MAPK (fold)” value is given as 1.0 fold. Next, `[2H]C([2H])([2H])N(Cc1ccccc1)c1ncnc2[nH]c(-c3ccc(CO)cc3)cc12` [TIA05-046, (4-(4-(Benzyl(methyl-d3)amino)-7H-pyrrolo[2,3-d]pyrimidin-6-yl)phenyl)methanol]: 0.6 fold.
